{"source": "patent US5373089A", "about": "“Oxytocin antagonist” (Northwestern University, priority 1993, dated 1994)", "key": {"[1]": {"target": "T1, HUMAN OXYTOCIN RECEPTOR (Homo sapiens, UniProt P30559)", "T1 construct": "Oxytocin receptors (OTrs) reside on the cell membrane and are present at high concentrations at the end of pregnancy in uterine tissue; from tissue; host or cells: human myometrium from cesarean section patients, sucrose-gradient membrane fraction", "T1 sequence (P30559 1-389)": "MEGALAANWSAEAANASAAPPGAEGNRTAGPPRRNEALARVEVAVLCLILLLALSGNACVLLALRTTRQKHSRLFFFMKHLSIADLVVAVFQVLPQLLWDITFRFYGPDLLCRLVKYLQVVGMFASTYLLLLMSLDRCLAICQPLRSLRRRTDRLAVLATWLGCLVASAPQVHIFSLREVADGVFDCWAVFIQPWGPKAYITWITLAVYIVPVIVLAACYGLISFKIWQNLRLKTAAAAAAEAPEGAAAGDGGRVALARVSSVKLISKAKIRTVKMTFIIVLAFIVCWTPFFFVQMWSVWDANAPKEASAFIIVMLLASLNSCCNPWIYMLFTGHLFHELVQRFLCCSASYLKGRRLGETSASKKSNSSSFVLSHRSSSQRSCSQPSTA", "experiment": "Oxytocin receptor assay, human myometrial tissue membranes, 3H-OT competition", "format": "binding", "experimental": "Human myometrial tissue was collected from patients at the time of cesarian section after informed consent. The tissue was rinsed in cold buffer, cut into small pieces and frozen at -70° C. until homogenization.\nOxytocin receptors (OTrs) reside on the cell membrane and are present at high concentrations at the end of pregnancy in uterine tissue. Frozen tissue is homogenized in Tris buffer, the homogenate filtered, and the filtrate centrifuged at 1000 g for 15 minutes at 4° C. The supernatant is centrifuged at 40,000 g for 30 minutes and the pellet containing the cell membranes resuspended in 10% sucrose. […]\nThe binding assay consist of 0.1 ml of 20,000 cmp of tritium labeled OT (New England Nuclear, […]), 0.1 ml of OT antagonist added at increasing concentration, 0.25 ml of buffer and 0.05 ml of membrane (70-150 ug protein). […] The resulting pellet containing the bound ^3 H-OT is dissolved in 0.1N NaOH at 45 ° C. for 30 minutes and this mixture is then placed in liquid scintillation counting fluid and counted for dpms in a scintillation counter.\nThe data is analyzed by nonlinear curve fitting methods using McPherson's EBDA (J Pharmacol Methods 14:213-228, 1985) and Munson and Rodbard's LIGAND (Anal Biochem 107:220-239, 1980) program for saturation and competition analysis for determining Kds and Kis."}, "[2]": {"tested_on": "ESTROUS RAT UTERUS", "experiment": "Oxytocic bioassay (isolated rat uterus, integrated contraction response to oxytocin)", "format": "cell-based", "conditions": "relative to B = 1.0", "excerpt": "The protocol used for the oxytocin bioassay procedure is derived from procedures described in a paper by Sawyer, et al., Endocrinology, 106:81 (1980), which in turn was based on reports of Munsick, Brit. J. Pharmacol., 3:328 (1960), and Holton, Brit. J. Pharmacol., 3:328 (1948). The assay calculations for the pA2 estimates are described by Schild, British J. Pharmacology, 2:189 (1947). The major difference in the present procedure from those reported by others in the field is that the area under the contraction is integrated where most other techniques calculate the amplitude. Integration provides much more consistent and reliable results although the pA2 estimates are approximately an order of magnitude lower than those reported using amplitude of the contraction as the endpoint.\n1. Animals--a 1.5 cm piece of uterus from a virgin rat (Holtzman) in natural estrus is used for the assay.\n2. Buffer/Assay Bath--The buffer used is Munsicks. This buffer contains 0.5 mM Mg^++ which reduces the pA2 estimates, but the results are reported to correlate better with in vivo data (Sawyer, et al., 1980). […]\n(e) Calculations for pA2 : The dose-response (DR) ratios are calculated for antagonist and a Schild's Plot is performed by plotting the Log (DR-1) vs. Log of antagonist concentration. The line plotted is calculated by least squares regression analysis. […]"}, "[3]": {"tested_on": "ADH", "experiment": "ADH bioassay (alteration in urine output due to ADH)", "format": "in vivo", "conditions": "relative to A = 1.000", "experimental": "The above compound was also tested for antagonism to vasopressin. Anti-ADH activity can be determined by measuring the alteration in urine output due to ADH in the presence and absence of the antagonist. A suitable ADH-assay is described in Sawyer, et al., Endocrinology, 63:694 (1958). […] The ratio of oxytocin antagonism to ADH antagonism was very high, viz. over 1, 866, as compared with 200 for the compositions disclosed in the parent applications.\nThe anti-ADH activity is measured by the alteration in urine […] in the presence and absence of the antagonist to determine the specificity of the antagonist. The anti-ADH assay is described in Sawyer, et al., Endocrinology, 63:694 (1958)."}}, "data": [{"substance": "[(S)Pmp^1,D-Trp^2,Pen^6,Arg^8 ] oxytocin [Compound D]", "values": [{"measurement": "RECEPTOR ASSAY Ka", "setting": "[1]; myometrial tissue from women at term by C-section, Table 4", "result": "41.7 10^+8 M^-1"}, {"measurement": "hOTR (OTA/ANTI)", "setting": "[1]; ratio of binding affinity to ANTAG I, human oxytocin receptor", "result": 81.8}, {"measurement": "Oxytocic Bioassay Relative Anti-Oxytocic Activity", "setting": "[2]", "result": 22.4}, {"measurement": "ADH Bioassay Relative Anti-ADH Activity", "setting": "[3]", "result": 0.012}]}]}
